pKi: −log10 of the molar value.
Target: JAK-2 (Homo sapiens, UniProt O60674)
Assay: JAK-2 inhibition assay
Format: biochemical

Chains of the proteins cited; added tags and fusions are not shown. Lines headed by an entry give the natural chain unless they say otherwise; changes in a name come on top.
UniProt O60674: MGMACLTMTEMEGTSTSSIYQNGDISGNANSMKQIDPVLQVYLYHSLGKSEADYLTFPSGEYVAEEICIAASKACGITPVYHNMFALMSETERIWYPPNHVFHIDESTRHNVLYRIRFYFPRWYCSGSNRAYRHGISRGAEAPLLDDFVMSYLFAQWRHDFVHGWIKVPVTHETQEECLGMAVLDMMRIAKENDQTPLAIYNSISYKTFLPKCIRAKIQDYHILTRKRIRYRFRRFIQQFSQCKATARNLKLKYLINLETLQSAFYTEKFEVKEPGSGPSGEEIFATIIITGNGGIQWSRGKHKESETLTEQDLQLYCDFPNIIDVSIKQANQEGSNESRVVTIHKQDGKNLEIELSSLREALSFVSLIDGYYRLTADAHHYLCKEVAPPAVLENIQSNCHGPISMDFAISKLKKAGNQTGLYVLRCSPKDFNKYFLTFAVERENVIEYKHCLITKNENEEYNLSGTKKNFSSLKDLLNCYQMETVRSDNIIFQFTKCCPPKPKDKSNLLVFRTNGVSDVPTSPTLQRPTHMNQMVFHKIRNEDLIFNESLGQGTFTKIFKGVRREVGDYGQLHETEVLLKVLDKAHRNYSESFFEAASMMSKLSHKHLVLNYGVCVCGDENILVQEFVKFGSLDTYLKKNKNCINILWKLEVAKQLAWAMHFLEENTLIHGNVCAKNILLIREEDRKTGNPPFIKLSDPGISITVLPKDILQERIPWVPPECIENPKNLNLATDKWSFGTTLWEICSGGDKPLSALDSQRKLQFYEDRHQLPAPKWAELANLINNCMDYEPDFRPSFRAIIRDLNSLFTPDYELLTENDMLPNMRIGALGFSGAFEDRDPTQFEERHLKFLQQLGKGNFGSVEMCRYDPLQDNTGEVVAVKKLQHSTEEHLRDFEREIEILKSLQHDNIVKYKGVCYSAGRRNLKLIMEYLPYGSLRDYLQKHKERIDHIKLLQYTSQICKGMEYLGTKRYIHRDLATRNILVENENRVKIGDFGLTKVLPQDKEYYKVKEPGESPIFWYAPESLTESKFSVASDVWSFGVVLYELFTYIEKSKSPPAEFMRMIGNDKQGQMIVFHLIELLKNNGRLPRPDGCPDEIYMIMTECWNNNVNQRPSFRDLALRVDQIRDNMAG

## O=C1Nc2ccccc2-c2ccnc3[nH]cc(c23)C1c1ccc(O)cc1 (stereo not shown) [Compound 125]
  pKi: > 6.60
